Results reported in ChEMBL document CHEMBL1144389, “Optimization of purine based PDE1/PDE5 inhibitors to a potent and selective PDE5 inhibitor for the treatment of male ED” (Bioorg Med Chem Lett, 2005).

Protein sequences, listed by entry. Tags and fused reporters are not part of them. Lines headed by an entry give the natural chain unless they say otherwise; changes in a name come on top.
UniProt O76083: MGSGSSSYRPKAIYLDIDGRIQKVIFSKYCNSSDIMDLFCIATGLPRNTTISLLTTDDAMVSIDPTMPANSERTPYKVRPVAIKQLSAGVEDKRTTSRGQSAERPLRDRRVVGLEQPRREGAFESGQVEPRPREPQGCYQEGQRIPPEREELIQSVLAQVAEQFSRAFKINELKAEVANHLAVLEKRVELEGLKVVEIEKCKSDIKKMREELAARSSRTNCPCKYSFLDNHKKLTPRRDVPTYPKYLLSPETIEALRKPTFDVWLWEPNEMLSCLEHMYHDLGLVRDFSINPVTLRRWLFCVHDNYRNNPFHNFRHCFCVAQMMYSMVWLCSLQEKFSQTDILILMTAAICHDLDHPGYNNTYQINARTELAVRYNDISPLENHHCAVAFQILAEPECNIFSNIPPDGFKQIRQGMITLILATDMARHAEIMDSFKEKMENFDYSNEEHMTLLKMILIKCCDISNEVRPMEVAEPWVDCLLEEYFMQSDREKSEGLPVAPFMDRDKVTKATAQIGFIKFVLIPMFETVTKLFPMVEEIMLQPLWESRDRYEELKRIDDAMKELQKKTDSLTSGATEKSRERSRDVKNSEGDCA
UniProt O00408, whole entry: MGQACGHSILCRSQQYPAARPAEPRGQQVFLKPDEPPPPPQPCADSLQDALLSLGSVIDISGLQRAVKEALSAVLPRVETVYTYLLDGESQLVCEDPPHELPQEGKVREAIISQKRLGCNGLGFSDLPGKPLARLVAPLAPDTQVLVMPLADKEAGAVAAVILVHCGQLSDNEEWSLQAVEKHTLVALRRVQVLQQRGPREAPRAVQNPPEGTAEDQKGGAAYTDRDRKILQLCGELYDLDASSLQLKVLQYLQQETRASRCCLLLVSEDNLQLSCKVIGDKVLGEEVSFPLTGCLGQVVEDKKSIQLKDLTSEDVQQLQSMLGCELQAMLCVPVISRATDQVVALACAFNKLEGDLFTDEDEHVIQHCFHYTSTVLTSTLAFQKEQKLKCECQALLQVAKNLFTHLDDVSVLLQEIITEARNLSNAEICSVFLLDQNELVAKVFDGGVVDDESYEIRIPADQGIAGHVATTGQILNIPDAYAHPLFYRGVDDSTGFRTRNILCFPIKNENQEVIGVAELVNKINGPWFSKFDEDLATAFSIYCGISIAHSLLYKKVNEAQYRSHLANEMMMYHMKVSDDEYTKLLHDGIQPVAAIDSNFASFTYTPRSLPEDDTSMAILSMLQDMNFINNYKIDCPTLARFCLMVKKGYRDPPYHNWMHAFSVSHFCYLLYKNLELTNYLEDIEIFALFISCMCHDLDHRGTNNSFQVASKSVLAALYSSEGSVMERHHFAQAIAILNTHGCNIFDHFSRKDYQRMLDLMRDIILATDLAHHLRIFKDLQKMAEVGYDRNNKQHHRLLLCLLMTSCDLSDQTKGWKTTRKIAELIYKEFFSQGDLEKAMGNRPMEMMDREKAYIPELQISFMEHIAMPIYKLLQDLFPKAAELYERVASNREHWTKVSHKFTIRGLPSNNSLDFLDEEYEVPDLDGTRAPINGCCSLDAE

How the values were obtained:
[1] = target: cGMP-specific 3',5'-cyclic phosphodiesterase (Homo sapiens, UniProt O76074); assay: Inhibition of human phosphodiesterase 5
[2] = target: High affinity cGMP-specific 3',5'-cyclic phosphodiesterase 9A (Homo sapiens, UniProt O76083); assay: Inhibition of Phosphodiesterase 9
[3] = target: cGMP-dependent 3',5'-cyclic phosphodiesterase (Homo sapiens, UniProt O00408); assay: Inhibition of human phosphodiesterase 2

IC50 [1] | IC50 [2] | IC50 [3] | Structure (SMILES)
0.023 µM | – | – | CCN1C(=O)c2c(nc(Br)n2Cc2ccc(OC)cc2)N2C[C@@H](Cc3ccccc3)N=C12
– | 3.4 µM | > 10 µM | CCCc1nn(C)c2c(=O)[nH]c(-c3cc(S(=O)(=O)N4CCN(C)CC4)ccc3OCC)nc12
